Among the data in PubChem BioAssay AID1645856 (Buhrlage Lab, Dana-Farber Cancer Institute and Novartis …, 2021) are inhibition values, retold here.

By UniProt entry, the sequences of proteins in these tests, tags left out.
UniProt Q14694, whole entry: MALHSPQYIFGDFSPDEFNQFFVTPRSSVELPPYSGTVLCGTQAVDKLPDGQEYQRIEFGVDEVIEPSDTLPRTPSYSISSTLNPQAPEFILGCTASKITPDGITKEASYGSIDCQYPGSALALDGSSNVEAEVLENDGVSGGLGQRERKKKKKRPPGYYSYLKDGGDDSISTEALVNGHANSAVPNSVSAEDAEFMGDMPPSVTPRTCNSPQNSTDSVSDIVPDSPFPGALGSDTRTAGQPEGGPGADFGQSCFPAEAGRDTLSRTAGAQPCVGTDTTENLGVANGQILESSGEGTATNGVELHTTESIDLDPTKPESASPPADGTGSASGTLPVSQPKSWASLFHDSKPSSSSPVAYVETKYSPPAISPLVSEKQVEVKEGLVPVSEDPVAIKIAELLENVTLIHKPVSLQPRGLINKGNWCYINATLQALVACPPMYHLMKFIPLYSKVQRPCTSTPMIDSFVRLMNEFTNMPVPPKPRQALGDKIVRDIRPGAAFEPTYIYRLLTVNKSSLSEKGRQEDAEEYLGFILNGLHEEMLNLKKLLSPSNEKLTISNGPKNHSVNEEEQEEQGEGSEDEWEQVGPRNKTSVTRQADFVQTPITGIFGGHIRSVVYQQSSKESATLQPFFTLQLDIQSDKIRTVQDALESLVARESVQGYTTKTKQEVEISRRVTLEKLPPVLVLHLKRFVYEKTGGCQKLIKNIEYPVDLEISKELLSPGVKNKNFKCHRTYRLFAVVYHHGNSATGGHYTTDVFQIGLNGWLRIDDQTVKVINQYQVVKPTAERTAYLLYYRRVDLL

The list shows a part of the results, in another mix than the full data. Activity calls are given as the source filed them. Cut-off read from the data, not from the text of the source: active = inhibition above about 30%; inactive = the rest.

In this assay the target is Ubiquitin carboxyl-terminal hydrolase 10 (Homo sapiens) (UniProt Q14694). The assay can be described thus: blocks human USP10 ubiquitin-rhodamine cleavage (AID 1645856). Conditions: purified USP10, Ub-rhodamine fluorescence, 60 min; at 20 µM; hits give high values.
`CN(C)c1ccc(C(=O)NCC2(N3CCCCC3)CCCCC2)cc1`: the inhibition is inactive: 1.79%. For `N#Cc1ccc(C(=O)NCC2(N3CCCCC3)CCCCC2)cc1` the value was inactive: -2.1%; for `Cc1cc(C(=O)NCC2(N3CCOCC3)CCCCC2)c2ccccc2n1`, inactive: -3.8%. In the case of `O=C(NCC1(N2CCCCC2)CCCCC1)c1ccc2ncsc2c1` it was inactive: -4.06%; in that of `Cc1ccccc1C(=O)NCC1(N2CCOCC2)CCCCC1`, inactive: 0.00246%; in that of `O=C(NCC1(N2CCOCC2)CCCCC1)c1ccccc1Cl`, inactive: 1.73%. For `O=C(NCC1(N2CCCCC2)CCCCC1)c1ccc(F)cc1` the value was inactive: -6.16%.

`CC1CN(CCc2ccccc2)CCC1=O` (stereo not drawn): the inhibition was inactive: -0.111%.

One may read the inhibition as the relative decrease from the control value, in per cent.
